{"sequences": {"note": "Amino acid sequences for entries named in this document (tags omitted). A change or cut given only in a name is not applied to a line headed by its entry.", "UniProt Q96S37": "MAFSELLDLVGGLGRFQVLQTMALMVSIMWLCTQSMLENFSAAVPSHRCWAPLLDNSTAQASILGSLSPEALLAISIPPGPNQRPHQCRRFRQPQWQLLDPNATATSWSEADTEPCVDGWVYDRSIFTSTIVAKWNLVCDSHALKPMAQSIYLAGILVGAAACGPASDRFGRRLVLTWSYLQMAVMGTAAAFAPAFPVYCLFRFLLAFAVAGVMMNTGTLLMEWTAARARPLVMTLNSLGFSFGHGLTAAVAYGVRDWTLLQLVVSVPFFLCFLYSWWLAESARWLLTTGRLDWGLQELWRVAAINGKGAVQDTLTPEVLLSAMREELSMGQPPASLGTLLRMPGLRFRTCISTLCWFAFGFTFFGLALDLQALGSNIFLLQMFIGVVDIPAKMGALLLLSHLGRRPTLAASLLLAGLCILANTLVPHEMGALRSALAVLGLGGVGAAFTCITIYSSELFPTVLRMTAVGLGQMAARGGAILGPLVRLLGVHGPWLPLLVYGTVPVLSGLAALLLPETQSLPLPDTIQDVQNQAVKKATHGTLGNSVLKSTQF"}, "source": "paper PMC9019507", "about": "“OAT10/SLC22A13 Acts as a Renal Urate Re-Absorber: Clinico-Genetic and Functional Analyses With Pharmacological Impacts” (Frontiers in Pharmacology, 2022)", "target": "T1, URAT1/SLC22A12 (Homo sapiens, UniProt Q96S37)", "T1 construct": "full-length human URAT1 wild-type, EGFP-fused (pEGFP-C1)", "assay": "cell-based", "design": "species or system 293A; inhibition of [8-14C]-urate uptake by URAT1-expressing 293A cells, concentration-response", "description": "Data are expressed as the mean ± SD; n = 4."}
{"smiles": "O=C(O)CSc1nnc(Br)n1-c1ccc(C2CC2)c2ccccc12", "note": "[LU, lesinurad]", "values": [{"measurement": "IC50", "result": 14.6, "unit": "µM"}]}
